Apparent affinities of Ab-14 variants for a coronavirus HR2 peptide

The measurements come from Li et al. 2023 (doi:10.1038/s41467-023-39022-2) through the FLAb antibody collection.

All variants were tested on one target, the spike HR2 peptide PDVDLGDISGINAS (SARS-CoV-2).

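The starting antibody came from a phage panning campaign against this peptide. The variants were designed computationally from a first round of random CDR variants and then made and measured. Their group label is 14H_En_HC (En: ensemble of fine-tuned language models; HC: hill climbing; a sequence that several methods proposed may carry one label only). The scFvs were displayed on barcoded MATa yeast, the peptide on MATalpha yeast. After mating in shaken culture at 30 °C for 16 h, diploids were selected and their barcode pairs sequenced. Scores were corrected for input abundance and mapped to Kd with protein pairs of known affinity run in the same pool. Mating was done six times.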

Each scFv is VH, a (GGGGS)3 linker, VL, as in the parent Ab-14, and differs from it in the CDRs of the heavy chain only.
VH: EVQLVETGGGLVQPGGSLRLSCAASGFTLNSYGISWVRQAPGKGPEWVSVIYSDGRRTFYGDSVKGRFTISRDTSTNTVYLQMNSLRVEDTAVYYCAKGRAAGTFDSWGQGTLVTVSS
VL: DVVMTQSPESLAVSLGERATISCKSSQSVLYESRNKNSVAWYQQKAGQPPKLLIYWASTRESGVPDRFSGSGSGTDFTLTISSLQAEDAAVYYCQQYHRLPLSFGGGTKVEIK

The parent's heavy chain CDRs are GFTLNSYGIS, VIYSDGRRTFYGDSVK, GRAAGTFDS; each variant's own CDRs replace them letter for letter.
Scale: log10 of Kd in nM, estimated from mating counts; low values are strong binders.
Where no diploid with the target was found in that replicate, the entry reads "n.d.": below detection, most likely a poor binder, though not proof of it.
Three control strains display no target. For all heavy chain designs, 1% of the pairings with them gave a signal, with a median of 2.08 and one signal in twenty below 0.84, so weak values seen in few replicates may be background. Also given: how often the same scFv was detected with the empty control strains, with their mean in brackets.

| # | CDR-H1 | CDR-H2 | CDR-H3 | log10 Kd (nM) by replicate | empty controls |
|---|---|---|---|---|---|
| 1 | GFDLNEYGIS | VIYADGMRTAYIDSVK | GEAAGTFDS | 0.16 / 0.20 / n.d. / 0.48 / 1.65 / n.d. | 0/18 |
| 2 | GFDLDEYGIS | VIYADGRRTFYVDSVK | GSNAGTFDM | -0.39 / -0.64 / -0.72 / -0.81 / -0.91 / -0.56 | 0/18 |
| 3 | GFDLNEYGIS | VIYADGRRTFYADSVK | GQSAGTFTL | 0.99 / 0.49 / 0.31 / 0.38 / 0.38 / 0.77 | 0/18 |
| 4 | GFDLNEYGIS | VIYADGMRTFYADSVK | GQLAGTFDV | -1.18 / -1.37 / -1.12 / -1.33 / -1.65 / -0.52 | 0/18 |
| 5 | GFDLNEYGIS | VIYADGRRTFYADSVK | GNLAGTFSV | -0.70 / -0.83 / -0.89 / -0.70 / -0.97 / -0.58 | 0/18 |
| 6 | GFDIDEYGIS | VIYADGRRTFYADSVK | GTNAGTFDM | -0.29 / -0.58 / -0.52 / -0.69 / -0.60 / -0.44 | 0/18 |
| 7 | GFDLNEYGIS | VIYADGRRTFYVDSVK | GQLAGTFDL | -0.85 / -0.74 / -0.95 / -0.88 / -1.05 / -0.68 | 0/18 |
| 8 | GFDLNEYGIS | VIYADGRRTFYADSVK | GNNAGTFIT | n.d. / n.d. / 1.77 / n.d. / 3.05 / n.d. | 0/18 |
| 9 | GFDLNEYGIS | VIYADGRRTFYADSVK | GSVAGTFIQ | n.d. / 0.17 / 0.98 / 0.26 / 0.58 / 0.71 | 1/18 (1.48) |
| 10 | GFDLEDYGIS | VIYADGRRTAYIDSVK | GENAGTFDV | -0.58 / 0.46 / -0.83 / -0.73 / -1.09 / -0.33 | 0/18 |
| 11 | GFDLNEYGIS | VIYADGMRTFYTDSVK | GQLAGTFDV | -0.41 / -0.47 / -0.01 / -0.33 / -0.25 / -0.10 | 0/18 |
| 12 | GFDLNEYGIS | VIYADGRRTAYTDSVK | GEFAGTFDQ | 0.54 / 0.10 / 0.34 / -0.16 / 0.57 / 0.13 | 0/18 |
| 13 | GFDLEDYGIS | VIYADGRRTFYSDSVK | GEIAGTFDL | -0.80 / 1.00 / -0.70 / -0.08 / 0.26 / -0.78 | 0/18 |
| 14 | GFDLNEYGIS | VIYADGKRTFYSDSVK | GNNGGTFDV | -0.42 / -0.34 / -0.49 / -0.66 / -0.52 / -0.24 | 1/18 (1.87) |
| 15 | GFDLNEYGIS | VIYADGKRTFYTDSVK | GQNAGTFDV | -0.85 / -0.39 / -0.57 / -0.62 / -0.57 / 0.03 | 0/18 |
| 16 | GFDLEDYGIS | VIYADGMRTAYADSVK | GEAAGTFDL | -0.16 / -0.12 / 0.35 / 0.47 / -0.67 / -0.37 | 0/18 |
| 17 | GFDLEDYGIS | VIYADGRRTFYADSVK | GEIAGTFDQ | -0.02 / -0.63 / -0.48 / -0.90 / -0.25 / -0.40 | 1/18 (1.99) |
| 18 | GFDLNEYGIS | VIYADGRRTFYLDSVK | GQLAGTFDV | -0.41 / -0.63 / -0.49 / -0.61 / -0.77 / -0.53 | 0/18 |
| 19 | GFNLNEYGIS | VIYADGMRTFYTDSVK | GETAGTFDF | -0.25 / -0.42 / -0.37 / -0.56 / -0.45 / 0.08 | 1/18 (1.26) |
| 20 | GFDLNEYGIS | VIYADGRRTFYADSVK | GQLAGTFDL | -0.82 / -0.68 / -0.71 / -0.98 / -0.91 / -0.58 | 1/18 (3.64) |
| 21 | GFDLNEYGIS | VIYADGMRTFYADSVK | GQAAGTFDS | 0.13 / -0.96 / -1.07 / -0.73 / -1.13 / -0.71 | 0/18 |
| 22 | GFDLDEYGIS | VIYADGMRTAYTDSVK | GEAAGTFDA | 0.38 / 0.09 / -0.42 / 0.29 / 0.03 / -0.42 | 1/18 (0.63) |
| 23 | GFDLNEYGIS | VIYADGMRTHYTDSVK | GNQAGTFDS | 0.05 / -0.09 / 0.23 / 0.02 / 0.11 / 0.32 | 0/18 |
| 24 | GFDLNEYGIS | VIYADGMRTFYTDSVK | GENAGTFDS | -0.33 / -0.26 / -0.63 / -0.30 / -0.30 / -0.03 | 0/18 |
| 25 | GFDLNEYGIS | VIYADGRRTSYADSVK | GEQAGTFDV | -0.63 / -0.33 / -0.43 / 0.15 / -0.30 / -0.51 | 0/18 |
| 26 | GFDLNEYGIS | VIYADGRRTFYADSVK | GQLAGTFSV | -0.08 / -0.38 / -0.30 / -0.47 / -0.53 / -0.30 | 0/18 |
| 27 | GFDLDEYGIS | VIYADGKRTFYADSVK | GEAAGTFDS | -0.03 / -0.18 / -0.07 / -0.21 / -0.28 / -0.06 | 0/18 |
| 28 | GFDLNEYGIS | VIYADGRRTAYSDSVK | GGNAGFFDQ | n.d. / 2.31 / n.d. / n.d. / n.d. / n.d. | 1/18 (2.03) |
| 29 | GFDLNEYGIS | VIYADGKRTFYSDSVK | GNVAGTFDI | n.d. / 0.18 / -0.08 / 0.59 / 0.60 / 0.22 | 0/18 |
| 30 | GFDLNEYGIS | VIYADGRRTAYIDSVK | GENAGTFDS | -0.03 / -0.08 / -0.49 / -0.39 / -0.39 / -0.40 | 1/18 (2.40) |
| 31 | GFDLNEYGIS | VIYADGRRTFYADSVK | GHVAGTFDS | -1.13 / -0.66 / n.d. / -1.37 / -1.02 / -1.17 | 0/18 |
| 32 | GFDLNEYGIS | VIYADGMRTAYTDSVK | GNEAGTFDM | 0.60 / 0.31 / 0.78 / 0.96 / 0.05 / 0.77 | 0/18 |
| 33 | GFDLNEYGIS | VIYADGKRTFYADSVK | GQVAGTFDI | -0.21 / -0.36 / -0.53 / -0.50 / -0.20 / -0.30 | 0/18 |
| 34 | GFDLDEYGIS | VIYADGRRTFYTDSVK | GETAGTFDV | -0.10 / -0.64 / -0.49 / -0.46 / -0.59 / -0.30 | 0/18 |
| 35 | GFDLNEYGIS | VIYADGQRTFYADSVK | GQNAGTFDL | -0.10 / -0.20 / -0.42 / -0.91 / 0.16 / -0.57 | 0/18 |
| 36 | GFDLNEYGIS | VIYADGRRTAYADSVK | GEVAGTFNV | -0.08 / 0.19 / -0.25 / -0.52 / -0.22 / 0.41 | 0/18 |
| 37 | GFDLNEYGIS | VIYADGRRTFYTDSVK | GEVAGTFDF | 0.03 / -0.17 / -0.03 / -0.23 / -0.23 / -0.05 | 1/18 (1.21) |
| 38 | GFDLNEYGIS | VIYADGRRTFYTDDVK | GQNAGTFDS | -0.32 / -0.55 / -0.46 / -0.67 / -0.54 / -0.15 | 0/18 |
| 39 | GFDLNEYGIS | VIYADGRRTQYIDSVK | GEVAGTFDA | n.d. / -0.08 / -0.33 / -0.19 / -0.15 / 0.22 | 0/18 |
| 40 | GFDLNEYGIS | VIYADGRRTFYSDSVK | GEAAGTFDL | -0.31 / -0.56 / 0.14 / -0.12 / -0.69 / -0.36 | 0/18 |

Repeated from above, the 5 best binders with a signal in all replicates:

{"CDR-H1": "GFDLNEYGIS", "CDR-H2": "VIYADGMRTFYADSVK", "CDR-H3": "GQLAGTFDV", "log10 Kd (nM) by replicate": "-1.18 / -1.37 / -1.12 / -1.33 / -1.65 / -0.52", "empty controls": "0/18"}
{"CDR-H1": "GFDLNEYGIS", "CDR-H2": "VIYADGRRTFYVDSVK", "CDR-H3": "GQLAGTFDL", "log10 Kd (nM) by replicate": "-0.85 / -0.74 / -0.95 / -0.88 / -1.05 / -0.68", "empty controls": "0/18"}
{"CDR-H1": "GFDLNEYGIS", "CDR-H2": "VIYADGRRTFYADSVK", "CDR-H3": "GNLAGTFSV", "log10 Kd (nM) by replicate": "-0.70 / -0.83 / -0.89 / -0.70 / -0.97 / -0.58", "empty controls": "0/18"}
{"CDR-H1": "GFDLNEYGIS", "CDR-H2": "VIYADGRRTFYADSVK", "CDR-H3": "GQLAGTFDL", "log10 Kd (nM) by replicate": "-0.82 / -0.68 / -0.71 / -0.98 / -0.91 / -0.58", "empty controls": "1/18 (3.64)"}
{"CDR-H1": "GFDLNEYGIS", "CDR-H2": "VIYADGMRTFYADSVK", "CDR-H3": "GQAAGTFDS", "log10 Kd (nM) by replicate": "0.13 / -0.96 / -1.07 / -0.73 / -1.13 / -0.71", "empty controls": "0/18"}

The authors averaged sequences with at least three values out of six and counted those with two or fewer as poor binders.
Values of this round are not directly comparable with the first-round values of the same sequences.
Of ten entries with the parent sequence, four were seen in most replicates (averages 0.34 to 2.37), three in one and three in none, so single entries are noisy.